From patent US20150104520A1, “Nanoparticle Formulations in Biomarker Detection” (priority 2013, published 2015)

System: patients with epithelial ovarian cancer
Assay: Phase 2 randomized two-arm trial, IG-001 plus carboplatin vs paclitaxel plus carboplatin, 1st line
Settings: patients with adverse events
From the text: Phase II ovarian trial design: randomized, two-arm trial, primary advanced epithelial ovarian cancer consisting of 100 patients (50/each arm). […] The primary objective of the study was to determine the Composite Response by GCIG CA-125 Response and Response Evaluation Criteria in Solid Tumors (RECIST): based on non-inferiority study. […] The treatment regimen included 6 cycles of treatment with injection every three weeks and tumor screening after cycles 2, 4 and 6.

## Paclitaxel + Carboplatin
  AE Rate (%): 44 (91.67) n (%)
